# Experimental data published in patent US8940491B2, “Genotoxicity as a biomarker for inflammation” (The Regents of the University of California, priority 2009, dated 2015).
# Tests used:
# mice = assay: Disease activity index in DSS-induced experimental colitis; format: in vivo; settings: 3% (w/v) DSS in drinking water, 3 cycles (7 days DSS, 14 days water); after Day 4 of Cycle 1, Day 3 of Cycle 2, Day 2 of Cycle 3; p<0.001
# Procedure: Induction of chemical colitis. […] Acute colitis was defined as a 7 day treatment, and chronic colitis as any further treatment including remission periods. Control animals received sterile acidified water only. Symptoms (weight loss, stool consistency, gross bleeding) were recorded daily for calculation of disease activity index (23).
# Evaluation of Experimental Colitis. The disease activity index (DAI) is the average combined score of weight loss (0-4), stool consistency (0-4), and bleeding (0-4), used to score clinical symptoms (23).
# [1] = test system: TNF-α, MCP-1, IFN-γ, TGF-β transcripts; assay: Quantitative real-time PCR of cytokines in peripheral blood, DSS colitis; format: in vivo, mouse; settings: DSS treated mice, particularly after the first cycle
# Procedure: RNA Isolation and Quantitative Real-Time PCR. Total RNA was isolated using QiaAmp RNA Blood Mini Kit (Qiagen) according to manufacturer's instructions. 25 ng/μl of total RNA was used for reverse transcription using OligodT (Invitrogen) and Superscript III Reverse Transcriptase (Invitrogen). 10 ng/μl of cDNA was used for quantitative real time PCR using Taqman Gene Expression Assays (Applied Biosystems, Foster City, Calif. p/n 4331182) for Tbp (TATA binding protein), TNF-α (tumor necrosis factor α), MCP-1 (monocyte chemoattractant protein 1, also known as CC chemokine ligand 2, CCL2), IFN-γ (interferon γ), TGF-β (tumor growth factor β) and Taqman Gene Expression Master Mix according to manufacturer's instructions on the ABI Prism 7500 sequence detection system (Applied Biosystems). Tbp was chosen as the endogenous control due to its low variability and low to medium relative abundance in terms of expression in blood (30). Each measurement was performed in triplicate and results were analyzed using SDS 2.2.1 software (Applied Biosystems). Gene expression was determined using the relative standard curve method normalized to Tbp expression.
# peripheral leukocytes [2] = test system: peripheral leukocytes
# Source text: Determination of oxidative DNA damage. The enzyme hOgg1-modified comet assay was used and carried out identically as previously described (1).
# [3] = test system: peripheral normochromatic erythrocytes; settings: p<0.01
# peripheral leukocytes [4] = test system: peripheral leukocytes; remark: listed apart in the source
substance,measurement,setting,value
dextran sulfate sodium [DSS],Disease Activity Index (DAI) of DSS treated vs. non-treated mice,mice,significantly higher disease activity indices
same,Cytokine mRNA expression in peripheral blood (relative to Tbp),[1],"up-regulation of TNF-α, MCP-1 (CCL2), and IFN-γ"
same,"Olive tail moment (DNA strand breaks, alkali-labile sites), wildtype mice","peripheral leukocytes [2]; after the first DSS cycle, p<0.001",increased in wildtype mice after the first cycle
same,"DNA strand breaks (olive tail moment), Atm−/− mice","peripheral leukocytes [2]; over DSS treatment, regardless of remission periods",successively increased
same,Micronucleus formation (MN-NCE per 1000 NCEs),[3]; after first cycle of DSS vs non-treated,significantly induced after the first cycle of treatment
same,Micronucleus formation (MN-NCE per 1000 NCEs),[3]; after second and third cycles vs non-treated and vs before cycle 1,further induced after the second and third cycles
same,Mortality of Atm−/− mice under DSS treatment,"Atm^−/− mice; 3% DSS, 3 cycles, one death at end of cycle 2, one at end of cycle 3",Two out of ten
same,"Disease activity index, Atm−/− vs wildtype and heterozygous mice",Atm^−/− mice; after acute 7 day exposure to DSS,mildly higher disease activity index
same,"8-oxoguanine and nitrotyrosine formation in peripheral leukocytes, Atm−/− mice","peripheral leukocytes [4]; 7 days of DSS treatment, p<0.05",significant increases in 8-oxoguanine
same,"8-oxoguanine and nitrotyrosine formation in peripheral leukocytes, wildtype mice","peripheral leukocytes [4]; acute 7 day exposure to DSS, p<0.01",significant increases

# Like-named read-outs stand apart in the source and are kept apart here.
